Target: T1, αvβ3 integrin (human, UniProt P06756 31-1048; P05106 27-788)
T1 construct: whole, on cells; Same entry used for αvβ3-K562, U-87 MG and A375M cells; also called αvβ3-K562; αvβ3 transfected K562 cells
Assay: flow cytometry, competition with FITC-Echistatin on αvβ3-K562 cells

Protein sequences, listed by entry. Tags and fused reporters are not part of them. Residues count along the entry.
UniProt P06756, 31-1048, chain 1 of 2: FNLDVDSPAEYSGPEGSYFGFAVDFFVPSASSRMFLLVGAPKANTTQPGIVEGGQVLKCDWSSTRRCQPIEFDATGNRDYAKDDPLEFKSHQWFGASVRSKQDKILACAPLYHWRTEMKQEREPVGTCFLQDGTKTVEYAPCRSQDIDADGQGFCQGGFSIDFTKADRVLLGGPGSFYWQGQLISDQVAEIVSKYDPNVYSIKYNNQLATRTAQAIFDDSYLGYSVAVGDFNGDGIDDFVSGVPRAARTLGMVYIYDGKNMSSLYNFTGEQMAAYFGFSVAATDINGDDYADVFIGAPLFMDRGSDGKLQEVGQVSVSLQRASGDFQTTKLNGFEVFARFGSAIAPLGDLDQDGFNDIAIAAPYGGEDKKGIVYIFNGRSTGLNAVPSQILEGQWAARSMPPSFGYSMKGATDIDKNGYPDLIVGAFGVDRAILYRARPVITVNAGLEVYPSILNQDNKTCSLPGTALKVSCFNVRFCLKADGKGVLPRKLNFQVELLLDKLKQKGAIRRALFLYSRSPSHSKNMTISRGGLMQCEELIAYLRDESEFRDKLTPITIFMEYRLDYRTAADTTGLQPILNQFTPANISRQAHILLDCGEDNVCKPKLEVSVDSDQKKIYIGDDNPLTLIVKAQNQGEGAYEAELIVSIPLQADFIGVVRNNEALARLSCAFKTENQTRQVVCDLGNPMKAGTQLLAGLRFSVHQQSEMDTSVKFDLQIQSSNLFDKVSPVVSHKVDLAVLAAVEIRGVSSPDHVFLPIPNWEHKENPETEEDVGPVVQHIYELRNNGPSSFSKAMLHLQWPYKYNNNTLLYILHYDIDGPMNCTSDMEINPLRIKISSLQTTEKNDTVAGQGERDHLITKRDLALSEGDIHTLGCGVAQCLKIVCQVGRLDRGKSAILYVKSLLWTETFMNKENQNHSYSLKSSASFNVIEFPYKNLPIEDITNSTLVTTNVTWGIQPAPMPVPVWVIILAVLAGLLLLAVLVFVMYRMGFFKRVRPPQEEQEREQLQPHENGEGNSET
αvβ3 integrin, UniProt P05106, 27-788, chain 2 of 2: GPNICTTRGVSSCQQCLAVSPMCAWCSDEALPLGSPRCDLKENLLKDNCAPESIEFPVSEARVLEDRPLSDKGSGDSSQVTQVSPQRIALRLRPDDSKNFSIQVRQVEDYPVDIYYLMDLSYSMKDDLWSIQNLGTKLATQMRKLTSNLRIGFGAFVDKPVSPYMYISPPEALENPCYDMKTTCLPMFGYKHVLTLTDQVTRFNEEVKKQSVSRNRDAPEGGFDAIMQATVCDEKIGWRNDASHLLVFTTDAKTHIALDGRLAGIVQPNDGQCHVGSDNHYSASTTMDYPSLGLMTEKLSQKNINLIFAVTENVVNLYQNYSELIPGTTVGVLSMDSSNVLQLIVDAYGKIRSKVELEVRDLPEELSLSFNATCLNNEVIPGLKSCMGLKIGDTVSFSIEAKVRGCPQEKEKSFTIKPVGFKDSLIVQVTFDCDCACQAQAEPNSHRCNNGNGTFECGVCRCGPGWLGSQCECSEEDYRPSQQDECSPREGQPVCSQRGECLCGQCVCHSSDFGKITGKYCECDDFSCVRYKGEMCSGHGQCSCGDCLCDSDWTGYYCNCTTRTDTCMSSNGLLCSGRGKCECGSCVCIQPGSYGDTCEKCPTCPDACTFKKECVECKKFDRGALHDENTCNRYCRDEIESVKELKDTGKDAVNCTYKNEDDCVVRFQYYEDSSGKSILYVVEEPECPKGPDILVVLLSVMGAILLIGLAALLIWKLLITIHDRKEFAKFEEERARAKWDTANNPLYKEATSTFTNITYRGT

IC50: 1350 nM
B1: cyclo (RGDyK)-Bio (peptide)
peptide: RGDYK
modifications: D-Tyr4; head-to-tail cyclic; Lys5 side chain joined through succinyl and one Ebes linker to Lys(biotin) amide
notes: made by the same procedure as the cyclo(RGDfK) conjugate; also called Biotinylated Cyclo(RGDyK)
